Laboratory results reported in patent US12274706B2, “Pharmaceutical composition for oral administration containing sulfasalazine and/or a sulfasalazine organic salt, production process and use” (MEDAC GESELLSCHAFT FUER KLINISCHE SPEZIALPRAEPARATE MBH, priority 2017, dated 2025).
Marks after values point to notes of the source that are not given here.

Test: Solubility of sulfasalazine, Form A meglumine salt and pharmaceutical compositions (HPLC)
Format: physicochemical
Settings: for pH FaSSIF-V2: pH of the solubility sample in FaSSIF-V2
[1] = pH of the solubility sample in water

SMILES	pH FaSSIF-V2	pH Water [1]	pH Water (diluted in phosphate Buffer pH 6.8)
O=C(O)c1cc(N=Nc2ccc(S(=O)(=O)Nc3ccccn3)cc2)ccc1O [sulfasalazine, 2-hydroxy-5-[2-[4-[(2-pyridinylamino)sulfonyl]phenyl]diazenyl]-benzoic acid]	6.3	5.9	
CNCC(O)C(O)C(O)C(O)CO.O=C(O)c1cc(N=Nc2ccc(S(=O)(=O)Nc3ccccn3)cc2)ccc1O [Form A meglumine salt, D(−)-N-methylglucamine 2-hydroxy-5-[2-[4-[(2-pyridinylamino)sulfonyl]phenyl]diazenyl]-benzoate, crystal Form A]	6.4	7.5	6.0*
